From patent US20150038541A1, “COMPOSITION AND METHODS FOR CELL MODULATION” (APOSIGNAL BIOSCIENCE LLC, priority 2012, published 2015)

Tested on: HeLa cells
Settings: HeLa cells pretreated with 10 nM AS-7 for two hours and continuous presence; TNF-alpha 2.5 to 20 nanograms per ml plus cycloheximide

`N#Cc1cccc(C(C(=O)NCC(c2ccccc2)c2ccccc2)N(CCc2c[nH]cn2)C(=O)c2ccccc2C(=O)c2ccccc2)c1` (stereo not shown) [AS-7] was tested, and the “effect on the cytotoxicity evoked by TNF-alpha” value was “failed to block the cytotoxicity”.
